According to patent publication EP4821509A1, “USE OF QUINAZOLINE COMPOUND AND THIRD-GENERATION EGFR INHIBITOR IN COMBINED DRUG FOR TREATING NON-SMALL CELL LUNG CANCER” (dated 2026):

Key:
[1] = system: BaF3 EGFR Del19 cells; assay: Pharmacodynamics in subcutaneous mouse xenograft model of BaF3 EGFR Del19 tumor cells; conditions: for inhibition of tumor growth compared with control group: 18 days after administration, single agents, oral, result in words
[2] = system: BaF3 EGFR L858R cells; assay: Pharmacodynamics in subcutaneous mouse xenograft model of BaF3 EGFR L858R tumor cells; conditions: for inhibition of tumor growth compared with control group: single agents, oral, result in words
[3] = day 21 after administration, gavage, osimertinib 5 mg/kg once a day, quinazoline derivative (I) 10 mg/kg twice a day, alone or combined
[4] = day 18 after administration, gavage, osimertinib 5 mg/kg once a day, quinazoline derivative (I) 10 mg/kg twice a day, alone or combined

| SMILES | inhibition of tumor growth compared with control group [1] | T/C (%) [2, 3] [%] | inhibition of tumor growth compared with control group [2] | Relative tumor proliferation rate T/C (%) [1, 4] [%] | TGI (%) [1, 4] [%] | Tumor volume (mm^3) (day 18 after administration) [1, 4] | Tumor volume (mm^3) (day 35 after administration ) ([1]; day 35 after administration, gavage, osimertinib 5 mg/kg once a day, quinazoline derivative (I) 10 mg/kg twice a day, alone or combined) | TGI (%) [2, 3] [%] | Tumor volume (mm^3) (day 21 after administration) [2, 3] | Tumor volume (mm^3) (day 60 after administration) ([2]; day 60 after administration, gavage, osimertinib 5 mg/kg once a day, quinazoline derivative (I) 10 mg/kg twice a day, alone or combined) |
| --- | --- | --- | --- | --- | --- | --- | --- | --- | --- | --- |
| C=CC(=O)Nc1cc(Nc2nccc(-c3cn(C)c4ccccc34)n2)c(OC)cc1N(C)CCN(C)C | good inhibition of tumor growth | 1.3 | good inhibition of tumor growth | – | – | – | – | – | – | – |
| C#Cc1cccc(Nc2ncnc3cc(OC)c(O[C@@H]4CCN(C)CC4(F)F)cc23)c1F | good inhibition of tumor growth | 2.1 | good inhibition of tumor growth | 0.6 | 102.8 | 24±7 | 260±44 | 104.0 | 46±13 | 974±365 |
